Measurements as given in PubChem BioAssay AID900 (National Center for Advancing Translational Sciences (NCATS), 2007).
Several values for one entry are separate records, joined by “and”; a condition that tells them apart may be missing. Identical values can stand only once. What follows is the remainder of the data, with few or none of the hits. Activity calls are given as the source filed them. The call rests on the fitted dose curve; in most records, active means well fitted inhibition curve with a large enough effect; inconclusive means small, poorly fitted or top-dose-only effect; inactive means flat fitted curve, though single readings scatter.

Protein sequences, listed by entry. Tags and fused reporters are not part of them. Lines headed by an entry give the natural chain unless they say otherwise; changes in a name come on top.
UniProt P29466: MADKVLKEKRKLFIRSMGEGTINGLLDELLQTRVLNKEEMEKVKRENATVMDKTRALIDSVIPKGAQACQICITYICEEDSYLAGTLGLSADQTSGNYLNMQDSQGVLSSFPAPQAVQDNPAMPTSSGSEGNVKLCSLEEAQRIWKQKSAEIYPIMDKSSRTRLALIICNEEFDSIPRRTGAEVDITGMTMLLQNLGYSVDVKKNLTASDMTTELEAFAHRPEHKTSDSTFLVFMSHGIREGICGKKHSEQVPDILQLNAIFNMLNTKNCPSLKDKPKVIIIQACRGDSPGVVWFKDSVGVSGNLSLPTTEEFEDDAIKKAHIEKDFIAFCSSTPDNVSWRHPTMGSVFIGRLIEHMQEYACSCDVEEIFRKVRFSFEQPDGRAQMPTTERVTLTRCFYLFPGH

The compounds below were run against Caspase-1 (Homo sapiens) (UniProt P29466) (assay: qHTS Assay for Allosteric/Competitive Inhibitors of Caspase-1). Details: Caspase-1 enzyme, Ac-WEHD-AFC fluorogenic rate; at 25.7 µM (top of the series) unless noted.
From the text: NIH Molecular Libraries Screening Centers Network [MLSCN]
NIH Chemical Genomics Center [NCGC]
PI Name: Dr. James Wells,
Dr. Enrique Perez-Paya, Dr.Janice Williams, Dr. Dennis Wolan, a person
The caspases (Cysteine Aspartyl Protease) comprise a related family of 14 dimeric proteases that are critical mediators of apoptosis (programmed cell death) and inflammation. The caspases represent an important class of drug targets for stroke, ischemia, cancer and inflammatory diseases. […] One goal of this project was to identify compounds that act as allosteric inhibitors via stabilizing the procaspase form of the enzyme. Previous work in Well's laboratory has shown that such allosteric inhibitors can be identified and these act by binding at the dimer interface of enzyme (Hardy, Lam et al., 2004).
The biochemical assay was configured using purified caspase 1 at a high enzyme concentration to promote formation of the homodimers and thus facilitate the identification of allosteric inhibitors. […] After initiation of the assay with substrate the plates were rapidly read using an automated robotic system (Kalypsys, Inc.) to maintain consistent timing. […]
Caspase 1 was prepared in buffer (50 mM HEPES pH 7.5, 50 mM KCl, 200 mM NaCl, 10 mM DTT, 0.1% CHAPS) at a concentration of 66.6 nM and 3 uL was dispensed to all wells using black solid Kalypsys 1536-well plates. […] The plates were then exposed using 405 nm excitation/520 nm emission filters for 4 sec and read at 20 sec intervals for 3 min. […]
Concentration-response curves were fitted to the data calculated from slope of the linear regression of fluorescent intensity versus time (the rate). The concentration-effect curves were then classified based on curve quality (r2), response magnitude and degree of measured activity. […] Inconclusive compounds had appreciable concentration-dependent effects on both the measured rate and the interpolated basal fluorescence intensity at the start of the reaction but where the basal fluorescent intensity was marginal (e.g. < 10-fold). […]
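Further: plate controls were vehicle for no effect and no substrate for full effect.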

Activity change, negative = inhibition, inactive:
CCCCCCc1ccc(O)cc1O -2.33% [at 57.5 µM]
COC(=O)C1=CO[C@@H](C)[C@H]2CN3CCc4c([nH]c5ccccc45)[C@@H]3C[C@H]12 -2.48% and -11.3%
COc1ccc2c3c([nH]c2c1)[C@H]1C[C@@H]2[C@@H](C[C@@H](O)[C@H](OC)[C@H]2C(=O)O)CN1CC3 -9.03% [at 11.5 µM]
